Literature values in patent US10596221B2, “Controlled-release fertilizer comprising oxidized glutathione” (Kaneka Corporation, priority 2015, dated 2020).

Details: salt prepared under a specific heating condition

In the case of “Ammonium salt of oxidized glutathione [ammonium salt of GSSG]”, the deliquescence is listed as “low” and the water solubility is listed as “high”.
